In PubChem BioAssay AID624125 (The Scripps Research Institute Molecular Screening Center, 2012):
Only a part is listed here, and it is no random draw. Some tests of the compounds listed are not included; inactive here does not mean inactive elsewhere. The source made the active and inactive calls.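 Rule for the calls: active = inhibition above its plate's cutoff, the mean inhibition of sample wells plus 3 SD (cut at about 27% in these data); inactive = the rest.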

The chains behind the UniProt entries cited, without tags or fusion partners.
UniProt P08173, whole entry: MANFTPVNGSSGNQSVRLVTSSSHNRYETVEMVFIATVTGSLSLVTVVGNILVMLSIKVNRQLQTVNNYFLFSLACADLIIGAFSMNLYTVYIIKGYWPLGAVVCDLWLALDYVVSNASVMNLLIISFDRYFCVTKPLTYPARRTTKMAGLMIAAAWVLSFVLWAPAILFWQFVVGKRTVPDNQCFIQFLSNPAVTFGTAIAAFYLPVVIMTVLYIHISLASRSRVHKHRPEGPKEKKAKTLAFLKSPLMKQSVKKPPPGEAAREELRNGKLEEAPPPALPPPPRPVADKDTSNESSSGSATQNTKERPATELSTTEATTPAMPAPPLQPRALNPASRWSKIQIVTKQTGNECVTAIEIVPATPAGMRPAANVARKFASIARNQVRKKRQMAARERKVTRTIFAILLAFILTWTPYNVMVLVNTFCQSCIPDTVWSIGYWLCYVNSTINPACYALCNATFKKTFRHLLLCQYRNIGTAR

Biological target: Muscarinic acetylcholine receptor M4 (Homo sapiens) (UniProt P08173)
Assay: human M4 muscarinic receptor antagonists, primary screen, CHO cells, Fluo-8 calcium fluorescence (AID 624125);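 note: 0% = acetylcholine EC80 with DMSO and 100% = DMSO without agonist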
Details: CHO-hM4 cells, ACh EC80, Fluo-8 calcium fluorescence; at 3 µM; active compounds read high

Compound | inhibition
O=C(NCC1(N2CCCCC2)CCCCC1)c1cccc(Cl)c1 | inactive: -6.89%
COc1ccc(Cl)cc1C(=O)NCC1(N(C)C)CCCCC1 | inactive: 3.88%
COc1cccc(C(=O)NCC2(N3CCCCC3)CCCCC2)c1 | inactive: -5.95%
COc1cc(C(=O)NCC2(N(C)C)CCCCC2)c([N+](=O)[O-])cc1OC | inactive: -9.12%
CN(C)C1(CNC(=O)c2ccc(Br)cc2)CCCCC1 | inactive: -2.18%
CN(C)c1cccc(C(=O)NCC2(N(C)C)CCCCC2)c1 | inactive: 6.14%
CC(C)Oc1ccc(C(=O)NCC2(N(C)C)CCCCC2)cc1 | inactive: -2.64%
COc1ccc(Br)c(C(=O)NCC2(N3CCCCC3)CCCCC2)c1 | inactive: -6.85%
Cc1ccc(C(=O)NCC2(N3CCCCC3)CCCCC2)cc1 | inactive: 5.54%
CC(C)N1C(=O)CC2(CCN(CCOC(=O)C(O)(c3ccccc3)c3ccccc3)CC2)C1=O | inactive: 5.27%
COc1cc(SC)ccc1C(=O)NCC1(N(C)C)CCCCC1 | inactive: -1.48%
O=C(NCC1(N2CCCCC2)CCCCC1)c1cc([N+](=O)[O-])ccc1Cl | inactive: -5.72%
O=C(NCC1(N2CCCCC2)CCCCC1)c1cccc(Br)c1 | inactive: -5.41%
Cc1cc(C(=O)NCC2(N3CCCCC3)CCCCC2)ccc1[N+](=O)[O-] | inactive: 1.68%
COc1ccc(C(=O)NCC2(N(C)C)CCCCC2)cc1 | inactive: -2.37%
O=C(NCC1(N2CCCCC2)CCCCC1)c1cc(F)c(F)cc1Cl | inactive: 4.26%
C=CCN1CCN(CCOC(=O)C(O)(c2ccccc2)c2ccccc2)CC1 | inactive: 23.9%
CN(C)c1ccc(C(=O)NCC2(N(C)C)CCCCC2)cc1 | inactive: -9.71%
Cc1ccccc1C(=O)NCC1(N2CCCCC2)CCCCC1 | inactive: -0.08%
